Measurements as given in ChEMBL document CHEMBL1123179, “4-Amino-2-(substituted methyl)-2-butenoic acids: substrates and potent inhibitors of gamma-aminobutyric acid aminotransferase” (J Med Chem, 1986).

Assays:
[1] = tested on: NCCCC(=O)O; conditions: Bacteria
[2] = tested on: NC/C=C(\CF)C(=O)O; assay: (§1) Compound was tested for the inhibitory effect against Gamma-amino-N-butyrate transaminase from pig brain, activity expressed as Km; conditions: Sus scrofa
[3] = tested on: NCCCC(=O)O; assay: as §1; conditions: Sus scrofa

Which Km [1] does the source give for “4-aminobutyrate aminotransferase, mitochondrial (Homo sapiens), P80404” here?
Its Km is 1400 µM.

“4-aminobutyrate aminotransferase, mitochondrial (Sus scrofa), P80147” was tested. Which Km [2] did it give?
The Km was 130 µM.

And the Km [3]?
Its Km is 1300 µM.
